Values quoted from earlier work in patent publication US20240050950A1, “GRADIENT-BASED MICROFLUIDIC CIRCUIT, DEVICE, AND METHOD FOR PERFORMING AN ASSAY” (priority 2020, published 2024).

Conditions: Table 1, antimicrobial agents/drugs; cited from earlier work

Substance	Molar volume [cm^3]
Duramycin	1370.8 ± 5.0
Gentamicin	350.1 ± 5.0
Spiramycin	692.8 ± 5.0
